Reference: US20150320880A1, “ANTIBODY DRUG CONJUGATES” (NOVARTIS AG, priority 2013, published 2015)
Each block holds one binder with its values, some of them ahead of it.

Chains of the proteins cited; added tags and fusions are not shown. Lines headed by an entry give the natural chain unless they say otherwise; changes in a name come on top.
UniProt P10721: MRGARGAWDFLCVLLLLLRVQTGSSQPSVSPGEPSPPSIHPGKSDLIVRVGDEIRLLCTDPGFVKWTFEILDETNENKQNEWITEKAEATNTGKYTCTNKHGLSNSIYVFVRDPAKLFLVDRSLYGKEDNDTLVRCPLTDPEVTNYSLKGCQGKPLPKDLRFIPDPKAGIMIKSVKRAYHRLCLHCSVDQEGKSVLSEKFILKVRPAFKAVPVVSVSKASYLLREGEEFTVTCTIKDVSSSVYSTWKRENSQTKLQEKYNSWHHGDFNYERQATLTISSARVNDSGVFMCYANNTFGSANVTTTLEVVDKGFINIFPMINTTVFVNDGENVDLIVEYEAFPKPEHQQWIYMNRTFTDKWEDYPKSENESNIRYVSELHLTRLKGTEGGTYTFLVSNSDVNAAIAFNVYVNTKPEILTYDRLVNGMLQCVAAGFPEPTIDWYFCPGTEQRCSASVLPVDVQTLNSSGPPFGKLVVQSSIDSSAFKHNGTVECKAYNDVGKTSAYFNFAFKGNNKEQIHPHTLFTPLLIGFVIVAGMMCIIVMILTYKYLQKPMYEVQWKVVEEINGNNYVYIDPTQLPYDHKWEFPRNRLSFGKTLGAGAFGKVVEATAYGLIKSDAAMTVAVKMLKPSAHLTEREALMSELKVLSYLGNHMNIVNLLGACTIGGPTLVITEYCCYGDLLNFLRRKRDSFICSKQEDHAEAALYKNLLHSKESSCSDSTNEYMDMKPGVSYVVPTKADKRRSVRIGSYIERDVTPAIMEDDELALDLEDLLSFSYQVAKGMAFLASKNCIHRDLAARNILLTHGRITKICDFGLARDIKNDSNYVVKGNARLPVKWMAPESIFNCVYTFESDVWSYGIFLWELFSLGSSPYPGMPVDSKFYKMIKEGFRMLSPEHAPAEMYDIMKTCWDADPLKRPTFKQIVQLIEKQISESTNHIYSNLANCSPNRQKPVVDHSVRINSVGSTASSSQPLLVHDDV

Target: T1, Human cKIT D1-5 (human cKIT tr. variant 2, residues 26-520, C-terminal His tag) (human, UniProt P10721 26-524)
T1 construct: also called human cKIT ECD; Human c-Kit ECD
Assay: SPR (Biacore T100), CM5 chip, method as in Example 7; MCC-DM1 conjugate

- Kd: 11.2 nM
B1: 20376-MCC-DM1 (antibody, human IgG1, lambda, V domains shown)
VH: QVQLVQSGAEVKKPGSSVKVSCKASGGTFSSYAISWVRQAPGQGLEWMGGIIPMSGRTTYAQKFQGRVTITADESTSTAYMELSSLRSEDTAVYYCARDYGPEAPDYGQSTSYFWYYAFDPWGQGTLVTVSS
VL: DIELTQPPSVSVSPGQTASITCSGDNIPSYFVHWYQQKPGQAPVLVIYDDNDRPSGIPERFSGSNSGNTATLTISGTQAEDEADYYCSSWDQDTVVFGGGTKLTVLG
modifications: DM1 linked through the MCC (SMCC) linker to primary amines of the antibody, sites not stated; DM1 linked through the MCC (SMCC) linker to primary amines of the antibody, sites not stated; average MAR 3.8 (Table 7)

- Kd: 1.1 nM
B2: NEG024-MCC-DM1 (antibody, human IgG1, kappa, V domains shown)
VH: EVQLVESGGGLVQPGGSLRLSCAASGFTFSDYYMAWVRQAPGKGLEWVANINQIAGSTYYLDSVRGRFTISRDNAKNSLYLQMNSLRAEDTAVYYCARGDYYGTTYWYFDVWGQGTTVTVSS
VL: EIVMTQSPATLSLSPGERATLSCRASQDISNYLNWYQQKPGQAPRLLIYYTSRLQSGIPARFSGSGSGTDYTLTISSLEPEDFAVYYCQQGKKLWSFGGGTKVEIKR
modifications: DM1 linked through the MCC (SMCC) linker to primary amines of the antibody, sites not stated; DM1 linked through the MCC (SMCC) linker to primary amines of the antibody, sites not stated; average MAR 4 (Table 7)
notes: Antibody drug conjugate of NEG024
